Consider 10 molecules from ChEMBL document CHEMBL3826971 (Bioorg Med Chem Lett, 2016).

This test deals with Cholinesterases; ACHE & BCHE (Homo sapiens) (UniProt P06276+P22303). The test can be described thus: Selectivity ratio, ratio of IC50 for human plasma BChE to IC50 for human AChE.
For the molecule `Cc1c(OC(=O)N(C)C)c2c(c[n+]1C)COC(C(C)C)OC2` (stereo not given), the Ratio IC50 was found to be 3.5. The result for `Cc1c(OC(=O)N(C)C)c2c(c[n+]1C)COC(C(C)(C)C)OC2` (stereo not given) reads 2.8; that for `CCCCCCCCC1OCc2c[n+](C)c(C)c(OC(=O)N(C)C)c2CO1` (stereo not given), 1.5; that for `Cc1c(OC(=O)N(C)C)c2c(c[n+]1C)COC(C)OC2` (stereo not given), 6.9. The result for `CCCC1OCc2c[n+](C)c(C)c(OC(=O)N(C)C)c2CO1` (stereo not given) reads 2.9.

Regarding `CCCCCCCC1OCc2c[n+](C)c(C)c(OC(=O)N(C)C)c2CO1` (stereo not given), the Ratio IC50 is 3.9. As to `CCCCCCCCCC(C)C1OCc2c[n+](C)c(C)c(OC(=O)N(C)C)c2CO1` (stereo not given), the Ratio IC50 is 1.3.

Regarding `Cc1c(OC(=O)N(C)C)c2c(c[n+]1C)COCOC2`, the Ratio IC50 is 3.1. The value for `CCC1OCc2c[n+](C)c(C)c(OC(=O)N(C)C)c2CO1` (stereo not given) was 2.9; that for `Cc1c(OC(=O)N(C)C)c2c(c[n+]1C)COC(C)(C)OC2` was 2.4.
